Assay results published in US20250290916A1 (Antibody Analytics Limited, priority 2022, published 2025).

Tests used:
CHO-K1 cells = assay: Cytotoxicity on CHO-K1 cells, eFluor780 fixable viability dye, flow cytometry; type: cell-based; conditions: increasing concentrations, 24 hours
Method: (§1) Before IAA was used as an expression inducer for the transduced cell lines, it was assessed for any cytotoxic effects on CHO-K1 and HEK293 cells. Cell viability in both HEK293 and CHO-K1 cells was measured by flow cytometry 24 hours post addition of IAA over the concentration range indicated.
(§2) HEK293 and CHO-K1 cells were treated with the indicated concentrations of IAA for 24 hours before being stained with eFluor780 fixable viability dye and analysed by flow cytometry.

HEK293 cells = assay: Cytotoxicity on HEK293 cells, eFluor780 fixable viability dye, flow cytometry; type: cell-based; conditions: increasing concentrations, 24 hours
Method: as §1, §2

For S-(+)-abscisic acid [ABA], the “cell viability (percentage of cells which do not take up the dye)” value (CHO-K1 cells) was “No decrease in cell viability was observed” and the “cell viability (percentage of cells which do not take up the dye)” value (HEK293 cells) was “No decrease in cell viability was observed”.
